Data published in patent US4711902A, “Medicament formulation” (Bayer Aktiengesellschaft, priority 1983, dated 1987).
Where two headings read alike, the source gives them in different places.

Details: triglycerides 70% caprylic, 30% capric acid, lipid content 20%, room temperature

Solubility of nimodipine in the emulsion of esters principally of medium chain-length fatty acids (benzyl alcohol 0% W/W): 0.16% | Solubility of nimodipine in the emulsion of esters principally of medium chain-length fatty acids (benzyl alcohol 2% W/W): 0.22% | Solubility of nimodipine in the emulsion of esters principally of medium chain-length fatty acids (benzyl alcohol 4% W/W): 0.36% | Solubility of nimodipine in the emulsion of esters principally of medium chain-length fatty acids (benzyl alcohol 5% W/W): 0.46%
SMILES: COCCOC(=O)C1=C(C)NC(C)=C(C(=O)OC(C)C)C1c1cccc([N+](=O)[O-])c1 (stereo not shown) [Nimodipine]
